These are literature values, as cited in patent US20230364009A1, “Implantable Medical Device for the Delivery of an Antipsychotic” (Celanese EVA Performance Polymers LLC, priority 2022, published 2023).

SMILES strings stand for the structures.

In the series the test system is cholinergic muscarinic receptors.

Turning to `Cc1nc2n(c(=O)c1CCN1CCC(c3noc4cc(F)ccc34)CC1)CCCC2` [Risperidone, risperidone], the affinity entry is given as “no affinity”.
